According to ChEMBL document CHEMBL4425105, “Discovery of (S)-1-(1-(4-Chloro-3-fluorophenyl)-2-hydroxyethyl)-4-(2-((1-methyl-1H-pyrazol-5-yl)amino)pyrimidin-4-yl)pyridin-2(1H)-one (GDC-0994), an Extracellular Signal-Regulated Kinase 1/2 (ERK1/2) Inhibitor in Early Clinical Development” (J Med Chem, 2016):
pIC50: −log10 of the molar value.

By UniProt entry, the sequences of proteins in these tests, tags left out.
UniProt P28482, whole entry: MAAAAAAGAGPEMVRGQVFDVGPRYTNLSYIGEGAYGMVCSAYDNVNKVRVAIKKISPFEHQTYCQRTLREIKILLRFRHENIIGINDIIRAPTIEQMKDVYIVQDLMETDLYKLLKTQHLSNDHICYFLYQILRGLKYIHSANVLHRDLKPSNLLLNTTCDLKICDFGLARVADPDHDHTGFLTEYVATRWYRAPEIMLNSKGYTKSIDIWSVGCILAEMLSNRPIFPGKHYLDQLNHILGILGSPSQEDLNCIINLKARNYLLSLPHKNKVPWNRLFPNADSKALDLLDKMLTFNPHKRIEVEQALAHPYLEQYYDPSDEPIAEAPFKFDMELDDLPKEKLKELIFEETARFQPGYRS

Target: Mitogen-activated protein kinase 1 (Homo sapiens, UniProt P28482)

| pIC50 | SMILES |
| --- | --- |
| 8.11 | CCn1cc(Nc2nccc(-c3ccn([C@H](CO)c4ccc(Cl)c(F)c4)c(=O)c3)n2)c(C)n1 |
| 7.89 | Cc1cc(Nc2nccc(-c3ccn([C@H](CO)c4ccc(Cl)c(F)c4)c(=O)c3)n2)n(C)n1 |
| 8.23 | Cc1nn(C)cc1Nc1nccc(-c2ccn([C@H](CO)c3ccc(Cl)c(F)c3)c(=O)c2)n1 |
